ChEMBL document CHEMBL4725292 (J Med Chem, 2020)

system: Bromodomain-containing protein 4 (Homo sapiens), O60885 [UNDEFINED MUTATION]; test: Selectivity index, […] for His6-thr-tagged BRD4 BD1 (1 to 477 residues)/BD2 Y390A mutant (unknown origin) to pIC50 for His6-tagged BRD4 BD2 (1 to 477 residues)/BD1 Y97A mutant (unknown origin)

Selectivity Index | Compound
6 | Cc1cc2c(-c3ccco3)cnc(N[C@H]3CCNC[C@@H]3C(=O)NC3CCCCC3)c2[nH]c1=O
630 | Cc1cc2c(-c3ccco3)cnc(N[C@@H]3CCNC[C@H]3C(=O)NC3CCCCC3)c2[nH]c1=O
630 | Cc1cc2c(-c3ccco3)cnc(N[C@@H]3CCNC[C@H]3C(=O)NC3CCCCC3)c2[nH]c1=O (racemic)
